Test results reported in ChEMBL document CHEMBL5483193, “Identification and evaluation of small-molecule inhibitors against the dNTPase SAMHD1 via a comprehensive screening funnel” (iScience, 2024).
The entries are a selection whose mix differs from that of the whole data set.

Protein sequences, listed by entry. Tags and fused reporters are not part of them.
UniProt Q9Y3Z3, whole entry: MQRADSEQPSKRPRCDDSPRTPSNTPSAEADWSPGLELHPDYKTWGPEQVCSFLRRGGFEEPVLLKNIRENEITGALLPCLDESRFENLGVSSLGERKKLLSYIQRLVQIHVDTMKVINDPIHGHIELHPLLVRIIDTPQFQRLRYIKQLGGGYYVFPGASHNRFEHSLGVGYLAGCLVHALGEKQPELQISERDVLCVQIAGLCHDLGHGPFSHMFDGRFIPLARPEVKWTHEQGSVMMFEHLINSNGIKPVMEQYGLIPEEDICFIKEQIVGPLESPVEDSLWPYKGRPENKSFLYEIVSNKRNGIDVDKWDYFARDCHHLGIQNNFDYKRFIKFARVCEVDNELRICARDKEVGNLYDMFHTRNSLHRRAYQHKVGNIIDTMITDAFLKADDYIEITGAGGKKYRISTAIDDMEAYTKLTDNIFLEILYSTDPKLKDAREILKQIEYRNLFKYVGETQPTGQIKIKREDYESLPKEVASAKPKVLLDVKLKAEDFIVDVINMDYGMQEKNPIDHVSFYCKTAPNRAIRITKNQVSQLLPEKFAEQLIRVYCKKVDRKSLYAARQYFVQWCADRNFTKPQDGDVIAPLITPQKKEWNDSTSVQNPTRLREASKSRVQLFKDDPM

Each compound was assayed against Deoxynucleoside triphosphate triphosphohydrolase SAMHD1 (Homo sapiens) (UniProt Q9Y3Z3) (assay: Compound was evaluated for the inhibition of human recombinant SAMHD1 at 5uM in a enzyme-coupled malachite green assay).

Compound	inhibition
CN(CCCl)CCCl	inactive: 19.8%
